Patent US20260297031A1, “HYDROXYLAMINE-BASED BCR-ABL1 INHIBITORS FOR TREATMENT OF CANCER” (University of Georgia Research Foundation, Inc., priority 2023, published 2026)

Tested on: MDCKII-MDR1 cells
Assay: MDCKII-MDR1 permeability

efflux (P-gp), in words: still substrates for P-gp
Structure (SMILES): COc1cc(Nc2c(C#N)cnc3cc(OCCCN4CCN(C)CC4)c(OC)cc23)c(Cl)cc1Cl [Bosutinib, bosutinib, reference compound]
